Experimental data: patent US7786348B2, “Methods for producing pathogen-resistant plants with allene oxide synthase and divinyl ether synthase, and the amino acid and nucleotide sequences thereof” (BASF Plant Science GmbH, priority 2001, dated 2010)

Tested on: enzyme encoded by clone Pp364 (divinyl ether synthase)
Experiment: Photometric activity assay of Pp364
Type: biochemical, Physcomitrella patens
Conditions: drop in absorption at 234 nm; 20 μM substrate

| Structure (SMILES) | conversion of substrate by enzyme encoded by clone Pp364 |
| --- | --- |
| CC/C=C\C[C@@H](/C=C/C=C\CCCCCCCC(=O)O)OO [13-HPOTE, (13S,9Z,11E,15Z)-13-hydroperoxy-9,11,15-octadecatrienoic acid] | converted |
| CCCCC/C=C\C=C\C(CCCCCCCC(=O)O)OO (centres unmarked) [9-HPODE] | converted |
